Several values for one entry are separate records, joined by “and”; a condition that tells them apart may be missing. Equal entries are not always repeated. Where two headings read alike, the source gives them in different places.
How the values were obtained:
[1] = molecular target: T1, KOR (Homo sapiens, UniProt P41145); type: binding; conditions: n=3; read-out: Ki ± SEM KOR
T1 construct: expressed in transfected cells; host or cells: CHO (Chinese hamster ovary) cell line, membrane preparation

The chains behind the UniProt entries cited, without tags or fusion partners. Where a name states a change or a piece, a line headed by the entry shows the natural chain unless it says otherwise.
UniProt P41145: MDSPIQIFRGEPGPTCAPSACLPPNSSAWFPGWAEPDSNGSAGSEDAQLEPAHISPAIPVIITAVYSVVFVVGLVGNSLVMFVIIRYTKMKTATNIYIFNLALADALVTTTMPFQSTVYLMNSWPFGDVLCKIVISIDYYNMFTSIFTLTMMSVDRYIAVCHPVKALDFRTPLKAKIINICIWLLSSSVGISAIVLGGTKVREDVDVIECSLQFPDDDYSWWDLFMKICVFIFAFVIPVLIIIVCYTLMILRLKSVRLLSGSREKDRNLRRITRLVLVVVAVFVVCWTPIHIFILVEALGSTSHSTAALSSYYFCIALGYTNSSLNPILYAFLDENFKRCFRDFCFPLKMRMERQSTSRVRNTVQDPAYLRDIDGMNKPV
UniProt P42866, whole entry: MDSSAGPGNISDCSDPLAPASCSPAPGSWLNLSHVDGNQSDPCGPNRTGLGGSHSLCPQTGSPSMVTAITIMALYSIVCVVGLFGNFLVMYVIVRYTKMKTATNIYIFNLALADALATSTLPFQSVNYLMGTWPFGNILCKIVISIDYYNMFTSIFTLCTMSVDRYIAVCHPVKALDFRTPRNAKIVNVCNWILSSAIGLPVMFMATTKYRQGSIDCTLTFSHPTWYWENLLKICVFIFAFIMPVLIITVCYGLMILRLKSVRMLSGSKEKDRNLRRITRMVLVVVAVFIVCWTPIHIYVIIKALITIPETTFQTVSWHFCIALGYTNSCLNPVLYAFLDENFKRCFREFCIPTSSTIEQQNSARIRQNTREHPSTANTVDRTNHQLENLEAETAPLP

[2] = molecular target: T1, KOR; assay: KOR [35S]GTPγS binding assay (Example 5); type: biochemical; conditions: three experiments
Protocol: The KOR full agonist 2-(3,4-dichlorophenyl)-N-methyl-N-[(1R,2R)-2-pyrrolidin-1-ylcyclohexyl]acetamide 17 (U50,488)41 and DOR full agonist 4-[(R)-[(2S,5R)-4-allyl-2,5-dimethylpiperazin-1-yl](3-methoxyphenyl)methyl]-N,N-diethylbenzamide 18 (SNC80)42 were included in the assays as reference compounds for a maximal effect at the KOR and the DOR, respectively.
The radioligand binding assay and the [^35S]GTPγS binding assay were conducted using monoclonal OR-expressed Chinese hamster ovarian (CHO) cell lines as described previously.^22,29,36,37 Briefly, for the competition binding assay, [^3H]NLX, [^3H]DPN, and [^3H]NTI were used to label the MOR, the KOR, and the DOR, respectively. Aliquots of a membrane protein (30 μg) were incubated with the corresponding radioligand in the presence of different concentrations of the ligand under investigation in TME buffer (50 mM Tris, 3 mM MgCl2, 0.2 mM EGTA, pH 7.7) at 30° C. for 1.5 h. The bound radioactive ligand was separated from the free radioligand by filtration using the Brandel harvester (Biomedical Research & Development Laboratories, MD). […] The potency of the drugs in displacing the specific binding of the radioligand was determined by linear regression analysis of Hill plots. […] Nonspecific binding was determined with 20 μM unlabeled GTPγS.

[3] = molecular target: T2, MOR (Mus musculus, UniProt P42866); assay: Competitive radioligand binding, [3H]naloxone, CHO cells (Example 2); design: expressed in transfected cells; host or cells: CHO (Chinese hamster ovary) cell line, membrane preparation; conditions: n=3; listed as 9 (NAQ); read-out: Ki ± SEM MOR
[4] = molecular target: T2, MOR; assay: 35S-GTP[γS]-binding functional assay in MOR expressing CHO cells (Example 2); type: biochemical; design: expressed in transfected cells; host or cells: CHO (Chinese hamster ovary) cell line, membrane preparation
[5] = molecular target: T1, KOR; conditions: NAP, cited from earlier work

Row | Substance | Ki [1] | EC50 [2] | KOR [35S]GTPγS Binding % Emax of U50,488 [2] | Ki [3] | EC50 ([4]; n=3) | Percent Max of DAMGO ([4]; normalized to full agonist DAMGO (3 μM)) | KOR 35S-GTP[γS] Binding % Emax of U50,488H (see reference 66) [5] | EC50 ([5]; read-out: KOR 35S-GTP[γS] Binding EC50 (see reference 66))
1 | 17-Cyclopropylmethyl-3,14β-dihydroxy-4,5α-epoxy-6α-[(3′-isoquinolyl)acetamido]morphinan [Compound 9] | 26.5 ± 5.22 nM | 10.9 ± 7.9 nM | 13.1 ± 2.0% | 0.55 nM and 0.556 nM | 4.36 ± 0.723 nM | 15.8383 ± 2.5353% | – | –
2 | 17-Cyclopropylmethyl-3,14β-dihydroxy-4,5α-epoxy-6β-[(4′-pyridyl)acetamido]morphinan [Compound 6] | 608 ± 56.6 nM | – | – | – | – | – | 45.5 ± 4.4% | 28.8 ± 14.4 nM

Source: patent US8980908B2, “Non-peptidyl, potent, and selective mu opioid receptor antagonists and their use in treating opioid addiction and opioid induced constipation” (Virginia Commonwealth University, priority 2009, dated 2015)
